Laboratory results as given in BindingDB's records for patent US20250213705 (Bright Peak Therapeutics, 2025).

Chains of the proteins cited; added tags and fusions are not shown.
UniProt Q04609, whole entry: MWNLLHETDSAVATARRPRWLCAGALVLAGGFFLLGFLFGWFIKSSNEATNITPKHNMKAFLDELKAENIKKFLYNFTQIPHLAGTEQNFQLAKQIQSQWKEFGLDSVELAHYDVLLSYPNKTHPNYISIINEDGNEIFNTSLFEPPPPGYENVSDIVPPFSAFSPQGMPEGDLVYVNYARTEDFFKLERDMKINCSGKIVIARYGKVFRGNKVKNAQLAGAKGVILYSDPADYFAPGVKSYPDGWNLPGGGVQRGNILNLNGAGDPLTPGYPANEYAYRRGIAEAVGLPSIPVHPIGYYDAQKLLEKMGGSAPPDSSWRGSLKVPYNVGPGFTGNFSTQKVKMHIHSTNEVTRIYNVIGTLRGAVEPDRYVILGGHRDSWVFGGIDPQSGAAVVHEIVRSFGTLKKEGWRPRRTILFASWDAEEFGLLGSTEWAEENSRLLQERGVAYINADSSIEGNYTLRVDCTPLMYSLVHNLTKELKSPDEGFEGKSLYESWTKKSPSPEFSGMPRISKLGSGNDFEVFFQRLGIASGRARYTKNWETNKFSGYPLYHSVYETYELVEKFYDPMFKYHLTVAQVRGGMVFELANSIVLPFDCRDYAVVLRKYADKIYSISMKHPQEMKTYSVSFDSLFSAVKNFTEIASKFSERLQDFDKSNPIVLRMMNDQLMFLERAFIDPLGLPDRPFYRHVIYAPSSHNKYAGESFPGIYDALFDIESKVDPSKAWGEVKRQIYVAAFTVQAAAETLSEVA

Biological target: Glutamate carboxypeptidase 2 (Homo sapiens, UniProt Q04609)
Experiment: Inhibition Assay
Method: Prepare a working solution of 100 μM Amplex Red reagent containing 0.25 U/mL HRP, 0.08 U/mL L-glutamate oxidase, 0.5 U/mL 1-glutamate-pyruvate transaminase, 200 μM L-alanine and keep protected from light. […] Final concentration is 5 nM. Transfer 10 μl/well of the inhibitor solution previously prepared in a separate 96 wells/plate. […] Incubate the reactions for 30 min at 37° C., protected from light. Because the assay is continuous (not terminated), fluorescence may be measured at multiple time points to follow the kinetics of the reactions. Measure the fluorescence in a fluorescence microplate reader using excitation in the range of 530-560 nm and emission detection at ˜590 nm. Ec50s were determined with GraphPad Prism. Ki is calculated based on Cheng-Prusoff equation.

Structure (SMILES)	Ki	IC50
CC(=O)NCCOCCOCCOCCC(=O)N[C@@H](Cc1cccc(C(=O)O)c1)C(=O)NCC(=O)N[C@@H](Cc1ccc2ccccc2c1)C(=O)NCCCC[C@H](NC(=O)N[C@@H](CCC(=O)O)C(=O)O)C(=O)O [US20250213705, Compound 84]	0.037 nM	
CC(=O)N[C@@H](Cc1ccc(O)cc1)C(=O)N[C@@H](Cc1ccc(O)cc1)C(=O)N[C@@H](CO)C(=O)N[C@@H](CO)C(=O)N[C@@H](CCC(=O)O)C(=O)N[C@@H](CCC(=O)O)C(=O)NCC(=O)N[C@@H](Cc1ccc(C(=O)O)cc1)C(=O)NCC(=O)N[C@@H](Cc1c[nH]c2ccccc12)C(=O)NCCCC[C@H](NC(=O)N[C@@H](CCC(=O)O)C(=O)O)C(=O)O [US20250213705, Compound 117]	0.002 nM	0.293 nM
